Measured values from US6357163B1, “Use of nucleic acid analogues in diagnostics and analytical procedures” (priority 1991, dated 2002).

System: 5′-AAA-AGA-AGA-A
Test: Melting temperature (Tm) of hybrid with oligodeoxyribonucleotide
Format: binding
Settings: oligo 7 (5′-AAA-AGA-AGA-A); 10 mM phosphate, 1 mM EDTA, 140 mM NaCl, pH 7.2
Text: 2. Upon formation of DNA duplexes (dsDNA) from single strand DNA, the extinction coefficient decreases (hypochromicity). Thus, the denaturing of DNA can be followed by measuring changes in the absorbance, for example, as a function of […], the temperature where 50% of a duplex has disappeared to give single strands.
Duplexes were formed from the single-stranded oligodeoxyribonucleotides and the PNAs listed below. Typically 0.3 OD260 of the T-rich strand was hybridized with 1 equivalent of the other strand by heating to 90° C. for 5 min, cooling to room temperature and kept for 30 min and finally stored in a refrigerator at 5° C. for at least 30 min. The buffers used were all 10 mM in phosphate and 1 mM in EDTA. The low salt buffer contained no sodium chloride, whereas the medium salt buffer contained 140 mM NaCl and the high salt buffer 500 mM NaCl. The pH of all the buffers was 7.2. The melting temperature of the hybrids were determined on a Gilford Response apparatus. The following extinction coefficients were used A: 15.4 ml/μmol.cm; T: 8.8; G: 11.7 and C: 7.3 for both normal oligonucleotides and PNA. The melting curves were recorded in steps of 0.5 C/min. The Tm were determined from the maximum of the 1st derivative of the plot of A260 vs temperature.
7. 5′-AAA-AGA-AGA-A (See SEQ ID NO:13)

Substance: 5′-TTC-TTC-TTT-T
- Tm, Medium Salt: 23.0 °C
